According to PubChem BioAssay AID631 (The Scripps Research Institute Molecular Screening Center, 2007):
The list shows a part of the results, in another mix than the full data. Some of these compounds have results that are not shown, active ones among them. Calls of active or inactive are those of the source. No stated cut-off is given here; in the data, active means activation above about 19%; inactive means the rest.

Chains of the proteins cited; added tags and fusions are not shown. Residues count along the entry.
UniProt P37231, 232-505 limits assumed: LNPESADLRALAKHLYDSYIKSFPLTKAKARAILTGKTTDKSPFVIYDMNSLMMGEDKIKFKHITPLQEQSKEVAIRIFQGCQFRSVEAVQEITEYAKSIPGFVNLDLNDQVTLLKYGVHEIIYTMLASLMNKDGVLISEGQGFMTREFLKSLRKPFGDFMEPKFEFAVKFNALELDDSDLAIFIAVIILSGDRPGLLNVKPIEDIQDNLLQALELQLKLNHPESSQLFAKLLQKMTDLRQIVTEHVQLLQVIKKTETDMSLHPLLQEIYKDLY
UniProt Q15788, whole entry partner: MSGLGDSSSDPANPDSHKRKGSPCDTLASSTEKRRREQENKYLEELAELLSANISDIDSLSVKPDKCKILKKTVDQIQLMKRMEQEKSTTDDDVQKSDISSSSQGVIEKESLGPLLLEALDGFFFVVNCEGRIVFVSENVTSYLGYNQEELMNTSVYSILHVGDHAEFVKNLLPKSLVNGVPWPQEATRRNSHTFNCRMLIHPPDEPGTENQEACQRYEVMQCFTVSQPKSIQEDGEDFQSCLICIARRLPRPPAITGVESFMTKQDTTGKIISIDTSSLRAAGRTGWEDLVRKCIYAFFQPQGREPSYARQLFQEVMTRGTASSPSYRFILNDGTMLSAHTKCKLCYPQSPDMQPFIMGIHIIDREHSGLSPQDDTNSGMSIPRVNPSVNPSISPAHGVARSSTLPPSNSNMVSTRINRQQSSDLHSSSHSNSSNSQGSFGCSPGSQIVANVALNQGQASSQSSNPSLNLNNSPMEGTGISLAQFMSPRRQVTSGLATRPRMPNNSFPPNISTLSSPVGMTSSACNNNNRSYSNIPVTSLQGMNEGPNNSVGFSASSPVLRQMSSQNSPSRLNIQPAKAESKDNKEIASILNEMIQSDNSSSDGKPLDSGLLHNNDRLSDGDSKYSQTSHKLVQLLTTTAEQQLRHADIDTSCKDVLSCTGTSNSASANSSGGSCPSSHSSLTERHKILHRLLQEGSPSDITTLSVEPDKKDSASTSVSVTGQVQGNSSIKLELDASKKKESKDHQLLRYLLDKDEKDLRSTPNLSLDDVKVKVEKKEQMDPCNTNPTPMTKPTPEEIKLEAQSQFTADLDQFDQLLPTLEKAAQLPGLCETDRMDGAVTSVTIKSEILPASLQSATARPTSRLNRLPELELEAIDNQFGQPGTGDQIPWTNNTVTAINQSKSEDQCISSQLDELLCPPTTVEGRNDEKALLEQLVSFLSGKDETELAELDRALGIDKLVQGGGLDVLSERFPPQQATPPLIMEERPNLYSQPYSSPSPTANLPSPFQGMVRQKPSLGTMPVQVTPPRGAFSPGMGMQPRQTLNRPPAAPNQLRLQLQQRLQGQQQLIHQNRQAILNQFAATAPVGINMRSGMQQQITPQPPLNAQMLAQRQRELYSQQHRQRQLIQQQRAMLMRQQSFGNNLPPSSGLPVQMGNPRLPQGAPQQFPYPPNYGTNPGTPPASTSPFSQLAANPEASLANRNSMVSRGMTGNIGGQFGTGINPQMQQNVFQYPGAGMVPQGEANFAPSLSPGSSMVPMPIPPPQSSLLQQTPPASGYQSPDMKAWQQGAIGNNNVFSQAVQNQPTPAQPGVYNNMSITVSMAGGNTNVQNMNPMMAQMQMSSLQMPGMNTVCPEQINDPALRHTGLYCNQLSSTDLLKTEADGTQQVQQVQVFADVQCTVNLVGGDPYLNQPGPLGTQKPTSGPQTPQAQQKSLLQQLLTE

molecular target: Peroxisome proliferator-activated receptor gamma (Homo sapiens) (UniProt P37231); assay: PPARgamma agonists recruiting SRC-1 coactivator, primary screen, biochemical (AID 631); conditions: PPARgamma-SRC-1 coactivator recruitment biochemical assay; at 8 µM; active compounds read high;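 further: 0% = DMSO and 100% = reference agonist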

| Structure (SMILES) | activation |
| --- | --- |
| CN(C)c1cccc(C(=O)NCC2(N(C)C)CCCCC2)c1 | inactive: 2% |
| O=C(OC1CN2CCC1CC2)C(CO)(c1ccccc1)c1ccccc1 (centres undefined) | inactive: 0.1% |
| COc1cccc(C(=O)NCC2(N3CCCCC3)CCCCC2)c1 | inactive: 4.6% |
| C=CCN1CCN(CCOC(=O)C(O)(c2ccccc2)c2ccccc2)CC1 | inactive: 7.9% |
| CCN1CCCC(OC(=O)C2(O)c3ccccc3C=Cc3ccccc32)C1 (centres undefined) | inactive: -6.8% |
| CN(C)C1CCCC1OC(=O)C(O)(c1ccccc1)c1ccccc1 (centres undefined) | inactive: -0.9% |
| Cc1ccccc1C(=O)NCC1(N2CCCCC2)CCCCC1 | inactive: 3.2% |
| CC(C)N1C(=O)CC2(CCN(CCOC(=O)C(O)(c3ccccc3)c3ccccc3)CC2)C1=O | inactive: -9.2% |
| O=C(NCC1(N2CCCCC2)CCCCC1)c1cc([N+](=O)[O-])ccc1Cl | inactive: 1.3% |
